Experimental data: patent publication US7348318B2, “α-Amino-N-(diaminophosphinyl)lactam derivatives” (priority 2002, dated 2008)

Sequences of proteins named here, by UniProt entry; tags and fusion partners are left off. A change or cut given only in a name is not applied to a line headed by its entry.
UniProt P14740: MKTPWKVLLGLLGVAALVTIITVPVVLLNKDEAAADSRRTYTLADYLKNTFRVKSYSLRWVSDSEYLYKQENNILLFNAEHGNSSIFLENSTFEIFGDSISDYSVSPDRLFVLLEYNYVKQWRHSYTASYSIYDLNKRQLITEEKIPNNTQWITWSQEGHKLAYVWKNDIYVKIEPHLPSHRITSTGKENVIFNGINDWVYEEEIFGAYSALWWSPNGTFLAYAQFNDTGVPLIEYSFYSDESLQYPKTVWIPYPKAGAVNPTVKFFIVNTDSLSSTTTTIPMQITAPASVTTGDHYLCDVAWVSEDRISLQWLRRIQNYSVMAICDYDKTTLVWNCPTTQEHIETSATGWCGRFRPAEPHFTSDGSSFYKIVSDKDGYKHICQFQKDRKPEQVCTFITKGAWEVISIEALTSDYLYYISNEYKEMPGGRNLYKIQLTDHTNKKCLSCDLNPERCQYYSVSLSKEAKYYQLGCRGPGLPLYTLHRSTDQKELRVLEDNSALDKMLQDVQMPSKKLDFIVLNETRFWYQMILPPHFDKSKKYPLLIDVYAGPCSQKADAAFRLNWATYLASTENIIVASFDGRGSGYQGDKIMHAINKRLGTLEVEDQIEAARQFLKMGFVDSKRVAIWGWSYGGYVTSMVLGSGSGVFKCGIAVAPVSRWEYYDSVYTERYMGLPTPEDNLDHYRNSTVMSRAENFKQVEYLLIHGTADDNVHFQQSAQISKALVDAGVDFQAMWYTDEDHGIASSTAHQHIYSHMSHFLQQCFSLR

Target: dipeptidyl peptidase IV (Rattus norvegicus, UniProt P14740)
Assay: Measurement of dipeptidyl peptidase IV activity
Format: biochemical
Conditions: read-out: Dipeptidyl peptidase IV 50% inhibition activity value; enzyme partially purified from rat kidney homogenate; glycyl·prolyl·β-naphthylamide; pH 7.2, 37° C., 1 hour

Question: With N[C@H]1CCCN(P(N)(=O)NC(=O)Nc2ccccc2)C1=O (stereo partly shown) as the compound, how does the IC50 read?
Answer: Its IC50 is 0.112 µM.
